Source: ChEMBL document CHEMBL4706717, “Covalent Occlusion of the RORγt Ligand Binding Pocket Allows Unambiguous Targeting of an Allosteric Site” (ACS Med Chem Lett, 2021)
The source made the active and inactive calls. The calls are words filed in the database; no cut-off is given here.

Protein sequences, listed by entry. Tags and fused reporters are not part of them. Lines headed by an entry give the natural chain unless they say otherwise; changes in a name come on top.
UniProt P51449: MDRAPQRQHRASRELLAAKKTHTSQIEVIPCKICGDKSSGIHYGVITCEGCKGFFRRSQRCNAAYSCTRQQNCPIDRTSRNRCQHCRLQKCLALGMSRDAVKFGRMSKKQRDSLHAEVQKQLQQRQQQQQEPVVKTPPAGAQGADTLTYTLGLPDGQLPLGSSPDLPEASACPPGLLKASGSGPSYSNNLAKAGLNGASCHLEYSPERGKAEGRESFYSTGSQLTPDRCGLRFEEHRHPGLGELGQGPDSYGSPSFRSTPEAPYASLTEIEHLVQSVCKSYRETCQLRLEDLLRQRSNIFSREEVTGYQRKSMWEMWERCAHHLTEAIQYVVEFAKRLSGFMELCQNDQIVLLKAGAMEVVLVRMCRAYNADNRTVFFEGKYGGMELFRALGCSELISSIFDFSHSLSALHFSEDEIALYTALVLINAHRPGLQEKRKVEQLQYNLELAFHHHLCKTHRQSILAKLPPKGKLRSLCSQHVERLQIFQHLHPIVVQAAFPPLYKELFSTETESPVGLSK

Legend:
[1] = target: T1, Nuclear receptor ROR-gamma (Homo sapiens, UniProt P51449); experiment: (§1) Orthosteric agonist activity at GW9662-ligated recombinant human N-terminal His6-tagged RORgammat ligand binding domain (265 to 518 residues) expressed in Escherichia coli BL21 (DE3) assessed as increase in coactivator, N-terminal biotinylated SRC-1 box2 peptide recruitment in presence of GW9662 incubated for 60 mins by TR-FRET assay
Summary of the method: (§2)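 Dose response: probe and His6-RORγt LBD (265-518, 20 μM) co-titrated (1.4x series, top 10 eq, 200 μM) in pH 5.8 TRIS/NaCl/CHAPS/BSA buffer overnight (4°C or RT per compound). Then 100 nM LBD, 100 nM biotin-SRC-1 box2, Tb anti-His, d2-streptavidin in HEPES pH 7.5, 150 mM NaCl, 5 mM DTT, 0.1% BSA, 0.1 mM CHAPS, 1% DMSO; top probe 1 μM; 60 min RT; 665/620 nm ratio; four-parameter fit; triplicate, ≥2 experiments.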

[2] = target: T1, Nuclear receptor ROR-gamma; experiment: as §1, with “2-chloro-5-nitro-N-(2-(trifluoromethyl)phenyl)benzamide-ligated” for “GW9662-ligated”, “2-chloro-5-nitro-N-(2-(trifluoromethyl)phenyl)benzamide” for “GW9662”; summary of the method: as §2
[3] = target: T1, Nuclear receptor ROR-gamma; experiment: as §1, with “2-chloro-N-(2,6-dimethylphenyl)-5-nitrobenzamide-ligated” for “GW9662-ligated”, “2-chloro-N-(2,6-dimethylphenyl)-5-nitrobenzamide” for “GW9662”; summary of the method: as §2
[4] = target: T1, Nuclear receptor ROR-gamma; experiment: as §1, with “2-chloro-5-nitro-N-o-tolylbenzamide-ligated” for “GW9662-ligated”, “2-chloro-5-nitro-N-o-tolylbenzamide” for “GW9662”; summary of the method: as §2
[5] = target: T1, Nuclear receptor ROR-gamma; conditions: filed as agonist, dose 10.0 µM

Row | SMILES | Activity [1] | Activity [2] | Activity [3] | Activity [4] | ΔTm [5] [°C]
1 | CC(C)CCC[C@](C)(O)[C@H]1CC[C@H]2[C@@H]3CC=C4C[C@@H](O)CC[C@]4(C)[C@H]3CC[C@@]21C | inactive | inactive | inactive | inactive | –
2 | CC(C)=CCC[C@@H](C)[C@H]1CC[C@H]2[C@@H]3CC=C4C[C@@H](O)CC[C@]4(C)[C@H]3CC[C@]12C | inactive | inactive | inactive | inactive | -1.5
